# Test results reported in publication PMC10539439 (Pharmacological Reports, 2023).
# Key:
# [1] = Distribution in brain after ip administration; details: rat brain, Guanabenz 0.3 mg/kg, 4-OH-Guanabenz 0.4 mg/kg
# TAAR1 = biological target: T1, TAAR1 (Homo sapiens, UniProt Q96RJ0); assay: Intrinsic activity, Hit Hunter cAMP assay; assay type: cell-based; details: Agonist, Conc 0.228624
# T1 sequence (Q96RJ0 1-339): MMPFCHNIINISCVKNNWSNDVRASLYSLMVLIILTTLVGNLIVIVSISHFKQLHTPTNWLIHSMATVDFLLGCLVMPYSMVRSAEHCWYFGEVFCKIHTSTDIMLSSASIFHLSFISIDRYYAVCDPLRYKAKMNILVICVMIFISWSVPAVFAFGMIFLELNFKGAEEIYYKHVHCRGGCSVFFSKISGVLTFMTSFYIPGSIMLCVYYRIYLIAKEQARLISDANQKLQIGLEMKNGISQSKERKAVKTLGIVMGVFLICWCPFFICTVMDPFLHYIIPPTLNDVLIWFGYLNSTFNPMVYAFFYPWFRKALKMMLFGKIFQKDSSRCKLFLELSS
Raw Value (TAAR1),Compound,AUC0→t [1]
–,N=C(N)N/N=C/c1c(Cl)cccc1Cl [Guanabenz],"25,179 ng ⋅ min/g"
1840,NCCc1ccc(O)cc1 [p-Tyramine],–
